Among the data in patent US7632952B2, “Benzothiazoles and the use thereof as medicaments” (Aventis Pharma S.A., priority 2004, dated 2009) are IC50 values, retold here.

Protein sequences, listed by entry. Tags and fused reporters are not part of them.
UniProt P11802, whole entry: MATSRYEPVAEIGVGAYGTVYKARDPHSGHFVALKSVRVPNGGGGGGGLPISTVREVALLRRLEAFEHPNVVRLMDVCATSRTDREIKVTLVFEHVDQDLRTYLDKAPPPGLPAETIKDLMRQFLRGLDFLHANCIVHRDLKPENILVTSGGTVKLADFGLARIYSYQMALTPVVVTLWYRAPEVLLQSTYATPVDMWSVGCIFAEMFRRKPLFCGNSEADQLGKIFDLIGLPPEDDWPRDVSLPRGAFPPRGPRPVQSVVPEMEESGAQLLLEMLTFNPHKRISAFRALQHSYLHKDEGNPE
UniProt P24385, whole entry partner: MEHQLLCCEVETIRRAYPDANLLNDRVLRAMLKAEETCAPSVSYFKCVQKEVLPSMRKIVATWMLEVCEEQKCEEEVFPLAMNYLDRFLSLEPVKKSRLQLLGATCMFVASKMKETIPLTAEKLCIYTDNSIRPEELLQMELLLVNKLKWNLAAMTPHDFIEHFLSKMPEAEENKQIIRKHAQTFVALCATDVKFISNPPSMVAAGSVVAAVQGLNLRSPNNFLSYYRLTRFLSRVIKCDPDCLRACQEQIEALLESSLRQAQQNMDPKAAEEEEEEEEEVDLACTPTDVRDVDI

This assay has as its target CDK4/cyclin D1 (Homo sapiens, UniProt P11802). As to the kind of experiment: CDK4/cyclin D1 Flashplate test in 96-well format. The following applies: read-out: CDK4 IC50; tested form: hydrochloride. As for the experimental part:
2. CDK4/cyclin D1 Protocol:
Purification of the CDK4-HA/cyclin D1-(His)6 Complex by IMAC (Immobilized Metal Affinity Chromatography):
Two recombinant baculoviruses bearing the human sequences coding, respectively, for CDK4-HA (C-terminal fusion with the hemaglutinin tag) and for cyclin D1-(His)6 are used to coinfect insect Sf9 cells. Sixty hours after the start of the coinfection, the cells are harvested by centrifugation and then frozen at −20° C. until the time of use. After thawing in buffer A (HEPES 200 mM pH 7.0, NaCl 50 mM, MgCl22 mM, imidazole 25 mM, TCEP 1 mM, glycerol 10% (p/v), NaF 1 mM, Na3VO4 1 mM), stirring for 1 hour at 4° C. and centrifugation, the complex present in the lysis supernatant is purified by affinity chromatography on nickel (IMAC) and stored at −80° C.
CDK4/cyclin D1 Flashplate Test in 96-Well Format
A test in 96-well “Flashplate” plates coated with streptavidin is used to evaluate the inhibition of the CDK4/cyclin D1 kinase complex by the products of the invention. […]
After addition of all the reagents, the test plate is incubated at 30° C. with orbital stirring at 650 rpm. […] The incorporation of ^33P into the substrate peptide is quantified by scintillation counting using a Packard Topcount.NXT machine. […]

Take `NCCCCCCCC(=O)Nc1nc2ccc(OS(=O)(=O)c3ccc(NCCCn4ccnc4)cc3)cc2s1`: the IC50 came to 609 nM.
